Measured values as given in PMC8535469, “Insight into the Binding and Hydrolytic Preferences of hNudt16 Based on Nucleotide Diphosphate Substrates” (International Journal of Molecular Sciences, 2021).
Like-named read-outs stand apart in the source and are kept apart here.

Protein sequences, listed by entry. Tags and fused reporters are not part of them.
UniProt Q96DE0, whole entry E76Q: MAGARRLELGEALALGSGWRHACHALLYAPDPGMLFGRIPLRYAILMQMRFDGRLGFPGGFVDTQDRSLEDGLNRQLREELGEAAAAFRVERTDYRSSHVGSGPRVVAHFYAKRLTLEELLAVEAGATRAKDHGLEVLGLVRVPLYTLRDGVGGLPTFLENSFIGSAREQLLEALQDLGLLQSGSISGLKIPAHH

Target: T1, hNudt16E76Q (Homo sapiens, UniProt Q96DE0, E76Q)
T1 construct: 4xHis (four added histidines); made in house; host or cells: E. coli Rosetta 2 (DE3), pET16b
Assay: Microscale thermophoresis (MST) binding, two independent binding sites model
Experimental: Binding constants for protein–ligand pairs were established using the MST method. The hNudt16 E76Q was labeled with RED-tris-NTA 2nd Generation dye (Monolith HIS-tag labeling Kit, NanoTemper Technologies, München, Germany) according to the manufacturer’s instructions. Measurements were carried out in a wide range of ligand concentrations, selected after preliminary tests for each of the ligands. The results obtained were used to determine of binding parameters for a given ligand. Each MST measurement consisted of a series of 16 serial 1:2 dilutions of the ligand, and was performed at a constant dye-labeled protein concentration of 50 nM. After 10 min of pre-incubation, dye-labeled protein–ligand samples were manually loaded into Monolith™ NT.115 Premium Capillaries (NanoTemper Technologies, München, Germany) and analyzed using the Monolith NT.115 (NanoTemper Technologies). […] Analysis was performed using Origin package (OriginLab, Northampton, MA, USA) and dissociation constants were fitted globally for a series of at least six MST pseudo-titration experiments for each ligand. Up to 10 replicates were performed for some ligands.
For the dissociation constants obtained, we also calculated the free energy associated with the dissociation of the complex ΔGdiss according to the equation: ΔGdiss=−RTlnKd.

Adenosine diphosphate ribose [ADPr]
ΔGdiss1 (for Kd1) (calculated as −RTlnKd from MST Kd1): 3.728 kcal/mol
Kd (second, weaker binding site, read-out: Kd2): ≥ 19.9 mM
Kd (stronger binding site, 50 nM dye-labeled protein, read-out: Kd1): 1.83 mM
